Data: patent US8975249B2, “Heterocyclic compounds and uses thereof” (Celgene Avilomics Research, Inc., priority 2010, dated 2015)

Molecular target: EGFR T790M/L858R (Homo sapiens (Human), UniProt P00533, L858R/T790M)
Test: Omnia biochemical assay, EGFR-T790M/L858R active enzyme
Conditions: for IC50: [EGFR-T790M/L858R]=2.5 nM, [ATP]=20 uM, 30 min pre-incubation

| SMILES | IC50 [nM] | Ratio WT/mutant |
| --- | --- | --- |
| C=CC(=O)Nc1cccc(Oc2nc(Nc3ccc(N4CCOCC4)cc3OC)ncc2C(F)(F)F)c1 [Compound I-1, N-(3-(2-(2-methoxy-4-morpholinophenylamino)-5-(trifluoromethyl)pyrimidin-4-yloxy)phenyl)acrylamide] | 1 to 10 |  |
| C=CC(=O)Nc1cccc(Nc2nc(Nc3ccc(N4CCOCC4)cc3OC)ncc2C(F)(F)F)c1 [Compound I-2, N-(3-(2-(2-methoxy-4-morpholinophenylamino)-5-(trifluoromethyl)pyrimidin-4-ylamino)phenyl)acrylamide] | < 1 |  |
| C=CC(=O)Nc1cccc(Oc2nc(Nc3ccc(N4CCN(C(=O)CO)CC4)cc3OC)ncc2Cl)c1 [Compound I-3, N-(3-(5-chloro-2-(4-(4-(2-hydroxyacetyl)piperazin-1-yl)-2-methoxyphenylamino)pyrimidin-4-yloxy)phenyl)acrylamide] | < 1 |  |
| C=CC(=O)Nc1cccc(Oc2nc(Nc3ccc(N4CCOCC4)cc3OC)ncc2Cl)c1 [Compound I-5, N-(3-(5-chloro-2-(2-methoxy-4-morpholinophenylamino)pyrimidin-4-yloxy)phenyl)acrylamide] | 1 to 10 |  |
| C=CC(=O)Nc1cccc(Oc2nc(Nc3ccc(N4CCN(C(C)=O)CC4)cc3OC)ncc2C(F)(F)F)c1 [Compound I-10, N-(3-(2-(4-(4-acetylpiperazin-1-yl)-2-methoxyphenylamino)-5-(trifluoromethyl)pyrimidin-4-yloxy)phenyl)acrylamide] | 1 to 10 |  |
| C=CC(=O)Nc1cccc(Oc2nc(Nc3ccc(N4CCN(C(=O)CO)CC4)cc3OC)ncc2C(F)(F)F)c1 [Compound I-11, N-(3-(2-(4-(4-(2-hydroxyacetyl)piperazin-1-yl)-2-methoxyphenylamino)-5-(trifluoromethyl)pyrimidin-4-yloxy)phenyl)acrylamide] | < 1 |  |
| C=CC(=O)Nc1cccc(Oc2nc(Nc3ccc(N4CCOCC4)cc3OC(F)F)ncc2C(F)(F)F)c1 [Compound I-13, N-(3-(2-(2-(difluoromethoxy)-4-morpholinophenylamino)-5-(trifluoromethyl)pyrimidin-4-yloxy)phenyl)acrylamide] | < 1 |  |
| C=CC(=O)Nc1cccc(Nc2nc(Nc3ccc(N4CCOCC4)cc3OC(F)F)ncc2C(F)(F)F)c1 [Compound I-14, N-(3-(2-(2-(difluoromethoxy)-4-morpholinophenylamino)-5-(trifluoromethyl)pyrimidin-4-ylamino)phenyl)acrylamide] | < 1 |  |
| C=CC(=O)Nc1cccc(Nc2nc(Nc3ccc(N4CCN(S(C)(=O)=O)CC4)cc3OC)ncc2C(F)(F)F)c1 [Compound I-17, N-(3-(2-(2-methoxy-4-(4-(methylsulfonyl)piperazin-1-yl)phenylamino)-5-(trifluoromethyl)pyrimidin-4-ylamino)phenyl)acrylamide] | < 1 |  |
| C=CC(=O)Nc1cccc(Oc2nc(Nc3ccc(N4CCN(C(=O)OC(C)(C)C)CC4)cc3OCC)ncc2Cl)c1 [Compound I-18, tert-butyl 4-(4-(4-(3-acrylamidophenoxy)-5-chloropyrimidin-2-ylamino)-3-ethoxyphenyl)piperazine-1-carboxylate] | 10 to 30 |  |
| C=CC(=O)Nc1cccc(Nc2nc(Nc3ccc(N4CCCN(C(=O)C(F)(F)F)CC4)cc3OC)ncc2C(F)(F)F)c1 [Compound I-19, N-(3-(2-(2-methoxy-4-(4-(2,2,2-trifluoroacetyl)-1,4-diazepan-1-yl)phenylamino)-5-(trifluoromethyl)pyrimidin-4-ylamino)phenyl)acrylamide] | 1 to 10 |  |
| C=CC(=O)Nc1cccc(Oc2nc(Nc3ccc(N4CCN(C(=O)OC)CC4)cc3OC)ncc2C(F)(F)F)c1 [Compound I-20, methyl 4-(4-(4-(3-acrylamidophenoxy)-5-(trifluoromethyl)pyrimidin-2-ylamino)-3-methoxyphenyl)piperazine-1-carboxylate] | 1 to 10 | >5 |
| C=CC(=O)Nc1cccc(Oc2nc(Nc3ccc(N4CCN(C(=O)NC)CC4)cc3OC)ncc2C(F)(F)F)c1 [Compound I-21, 4-(4-(4-(3-acrylamidophenoxy)-5-(trifluoromethyl)pyrimidin-2-ylamino)-3-methoxyphenyl)-N-methylpiperazine-1-carboxamide] | < 1 |  |
| C=CC(=O)Nc1cccc(Oc2nc(Nc3ccc(N4CCN(S(C)(=O)=O)CC4)cc3OC)ncc2C(F)(F)F)c1 [Compound I-22, N-(3-(2-(2-methoxy-4-(4-(methylsulfonyl)piperazin-1-yl)phenylamino)-5-(trifluoromethyl)pyrimidin-4-yloxy)phenyl)acrylamide] | < 1 |  |
| C=CC(=O)Nc1cccc(Oc2nc(Nc3ccc(N4CCN(C(=O)CC(C)(C)C)CC4)cc3OC)ncc2Cl)c1 [Compound I-23, N-(3-(5-chloro-2-(4-(4-(3,3-dimethylbutanoyl)piperazin-1-yl)-2-methoxyphenylamino)pyrimidin-4-yloxy)phenyl)acrylamide] | 1 to 10 |  |
| C=CC(=O)Nc1cccc(Oc2nc(Nc3ccc(N4CCN(S(C)(=O)=O)CC4)cc3OC)ncc2Cl)c1 [Compound I-26, N-(3-(5-chloro-2-(2-methoxy-4-(4-(methylsulfonyl)piperazin-1-yl)phenylamino)pyrimidin-4-yloxy)phenyl)acrylamide] | < 1 |  |
| C=CC(=O)Nc1cccc(Oc2nc(Nc3ccc(N4CCN(S(N)(=O)=O)CC4)cc3OC)ncc2C(F)(F)F)c1 [Compound I-27, N-(3-(2-(2-methoxy-4-(4-sulfamoylpiperazin-1-yl)phenylamino)-5-(trifluoromethyl)pyrimidin-4-yloxy)phenyl)acrylamide] | 1 to 10 |  |
| C=CC(=O)Nc1cccc(Nc2nc(Nc3ccc(N4CCN(C(=O)CO)CC4)cc3OC(F)F)ncc2C(F)(F)F)c1 [Compound I-31, N-(3-(2-(2-(difluoromethoxy)-4-(4-(2-hydroxyacetyl)piperazin-1-yl)phenylamino)-5-(trifluoromethyl)pyrimidin-4-ylamino)phenyl)acrylamide] | < 1 |  |
| C=CC(=O)Nc1cccc(Oc2nc(Nc3ccc(N4CCOCC4)cc3OC(F)F)ncc2Cl)c1 [Compound I-36, N-(3-(5-chloro-2-(2-(difluoromethoxy)-4-morpholinophenylamino)pyrimidin-4-yloxy)phenyl)acrylamide] | < 1 |  |
| C=CC(=O)Nc1cccc(Oc2nc(Nc3ccc(N4CCCOCC4)cc3OC)ncc2Cl)c1 [Compound I-37, N-(3-(5-chloro-2-(2-methoxy-4-(1,4-oxazepan-4-yl)phenylamino)pyrimidin-4-yloxy)phenyl)acrylamide] | 1 to 10 |  |

More lines, main results first:

| IC50 [nM] | SMILES | Ratio WT/mutant |
| --- | --- | --- |
| < 1 | C=CC(=O)Nc1cccc(Nc2nc(Nc3ccc(N4CCN(C(=O)CO)CC4)cc3OC)ncc2C(F)(F)F)c1 [Compound I-6, N-(3-(2-(4-(4-(2-hydroxyacetyl)piperazin-1-yl)-2-methoxyphenylamino)-5-(trifluoromethyl)pyrimidin-4-ylamino)phenyl)acrylamide] |  |
| < 1 | C=CC(=O)Nc1cccc(Nc2nc(Nc3ccc(N4CCCN(C(C)=O)CC4)cc3OC)ncc2C(F)(F)F)c1 [Compound I-7, N-(3-(2-(4-(4-acetyl-1,4-diazepan-1-yl)-2-methoxyphenylamino)-5-(trifluoromethyl)pyrimidin-4-ylamino)phenyl)acrylamide] |  |
| 1 to 10 | C=CC(=O)Nc1cccc(Nc2nc(Nc3ccc(N4CCN(C(C)=O)CC4)cc3OC)ncc2Cl)c1 [Compound I-8, N-(3-(2-(4-(4-acetylpiperazin-1-yl)-2-methoxyphenylamino)-5-chloropyrimidin-4-ylamino)phenyl)acrylamide] |  |
| < 1 | C=CC(=O)Nc1cccc(Oc2nc(Nc3ccc(N4CCN(C(C)=O)CC4)cc3OC)ncc2Cl)c1 [Compound I-9, N-(3-(2-(4-(4-acetylpiperazin-1-yl)-2-methoxyphenylamino)-5-chloropyrimidin-4-yloxy)phenyl)acrylamide] |  |
| < 1 | C=CC(=O)Nc1cccc(Nc2nc(Nc3ccc(N4CCN(C(=O)CO)CC4)cc3OC)ncc2Cl)c1 [Compound I-12, N-(3-(5-chloro-2-(4-(4-(2-hydroxyacetyl)piperazin-1-yl)-2-methoxyphenylamino)pyrimidin-4-ylamino)phenyl)acrylamide] |  |
| < 1 | C=CC(=O)Nc1cccc(Nc2nc(Nc3ccc(N4CCN(C(=O)NC)CC4)cc3OC)ncc2C(F)(F)F)c1 [Compound I-28, 4-(4-(4-(3-acrylamidophenylamino)-5-(trifluoromethyl)pyrimidin-2-ylamino)-3-methoxyphenyl)-N-methylpiperazine-1-carboxamide] |  |
| < 1 | C=CC(=O)Nc1cccc(Nc2nc(Nc3ccc(N4CCN(C(=O)OC)CC4)cc3OC)ncc2C(F)(F)F)c1 [Compound I-29, methyl 4-(4-(4-(3-acrylamidophenylamino)-5-(trifluoromethyl)pyrimidin-2-ylamino)-3-methoxyphenyl)piperazine-1-carboxylate] |  |
| < 1 | C=CC(=O)Nc1cccc(Nc2nc(Nc3ccc(N4CCN(C(C)=O)CC4)cc3OC(F)F)ncc2C(F)(F)F)c1 [Compound I-32, N-(3-(2-(4-(4-acetylpiperazin-1-yl)-2-(difluoromethoxy)phenylamino)-5-(trifluoromethyl)pyrimidin-4-ylamino)phenyl)acrylamide] |  |
| < 1 | C=CC(=O)Nc1cccc(Nc2nc(Nc3ccc(N4CCN(C(C)=O)CC4)cc3OC(F)(F)F)ncc2C(F)(F)F)c1 [Compound I-33, N-(3-(2-(4-(4-acetylpiperazin-1-yl)-2-(trifluoromethoxy)phenylamino)-5-(trifluoromethyl)pyrimidin-4-ylamino)phenyl)acrylamide] |  |
| < 1 | C=CC(=O)Nc1cccc(Nc2nc(Nc3ccc(N4CCN(C(=O)C(C)(C)C)CC4)cc3OC)ncc2C(F)(F)F)c1 [Compound I-34, N-(3-(2-(2-methoxy-4-(4-pivaloylpiperazin-1-yl)phenylamino)-5-(trifluoromethyl)pyrimidin-4-ylamino)phenyl)acrylamide] |  |
| < 1 | C=CC(=O)Nc1cccc(Nc2nc(Nc3ccc(N4CCN(C(=O)CC)CC4)cc3OC)ncc2C(F)(F)F)c1 [Compound I-35, N-(3-(2-(2-methoxy-4-(4-propionylpiperazin-1-yl)phenylamino)-5-(trifluoromethyl)pyrimidin-4-ylamino)phenyl)acrylamide] |  |
